Assay results: patent US11091512B2, “Modulation of antigen immunogenicity by deleting epitopes recognized by NKT cells” (Imnate Sarl, priority 2010, dated 2021)

Test system: CD4+ T cells and NKT cells
Experiment: peripheral blood CD4+ T cells cultured with human dendritic cells loaded with natural or mutated antibody
Type: cell-based
Settings: 5 to 7 days culture
From the text: Monoclonal human antibodies of the IgG4 isotype were derived from the peripheral blood B lymphocytes by transformation with the Epstein-Barr virus. The genomic sequence of such antibodies was obtained from transformed B cells. A viral vector containing the corresponding cDNA sequence was constructed and used for transfection of CHO cells. All these methods are known in the art (see for instance, Jacquemin et al Blood 92: 496-506, 1998).
The hydrophobic aminoacid residues located in position 1 in the peptides of SEQ ID18 and SEQ ID20 were mutated to a serine and the mutated antibody produced by transfected CHO cells.
Peripheral blood CD4+ T cells obtained as above were exposed in culture medium to human dendritic cells (derived from human peripheral blood monocytes by methods known in the art) and loaded with either the antibody in natural configuration (SEQ ID21) or its mutated counterpart (SEQ ID22). After culturing the cells with CD4+ T cells for 5 to 7 days, the population of CD4+ T cells activated by either natural or mutated antibody was evaluated. CD4+ NKT cells were separated from CD4+ T cells using an antibody to NKG2D, a surface marker associated with NK or NKT cells only.

B1: SEQ ID21: monoclonal human IgG4 antibody in natural configuration (listed as human IgG4 FC fragment) (protein, listed as Homo sapiens)
chain: ASTKGPSVFPLAPCSRSTSESTAALGCLVKDYFPEPVTVSWNSGALTSGVHTFPAVLQSSGLYSLSSVVTVPSSSLGTKTYTCNVDHKPSNTKVDKRVESKYGPPCPSCPAPEFLGGPSVFLFPPKPKDTLMISRTPEVTCVVVDVSQEDPEVQFNWYVDGVEVHNAKTKPREEQFNSTYRVVSVLTVLHQDWLNGKEYKCKVSNKGLPSSIEKTISKAKGQPREPQVYTLPPSQEEMTKNQVSLTCLVKGFYPSDIAVEWESNGQPENNYKTTPPVLDSDGSFFLYSRLTVDKSRWQEGNVFSCSVMHEALHNHYTQKSLSLSLGK
activation of class II restricted CD4+ T cells: CD4+ T cells and NKT cells were activated
activation of NKT cells (NKT cells separated with antibody to NKG2D): CD4+ T cells and NKT cells were activated
